## Measured properties of organic chemicals

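OPERA's authors assembled the values from existing databases and did not measure them anew. A listed value is a point estimate from one report or more. Method and conditions are not stated for these values. Where a salt, mixture or single isomer is drawn, the source does not say that exactly this form was tested. Some upstream entries may be estimates or bounds without being marked so.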

Melting points are in °C.
Boiling points are in °C, nominally at 760 mmHg.
logP is the log10 of the octanol-water partition coefficient; higher is more lipophilic.
Solubility in water is on a log10 molar scale (set defined at 25 °C).
Vapor pressure is log10 of mmHg; the set covers 15 to 30 °C, mostly 20 to 25 °C.
fu is the fraction unbound in human plasma, from 0 to 1.
"–" marks a cell with nothing listed here.

Listed for Cc1cc(C2(c3ccc(O)c(C)c3)CCCCC2)ccc1O [Phenol, 4,4'-cyclohexylidenebis[2-methyl-]: logP (octanol/water) 3.1 and log S -5.372 (log10 mol/L).
Listed for CCC(CO)(CO)C(=O)O [Butanoic acid, 2,2-bis(hydroxymethyl)-]: logP (octanol/water) 0.21 and log vapor pressure -6.921 (log10 mmHg).
Listed for CCCCCCOC [Hexane, 1-methoxy-]: logP (octanol/water) 3.6 and log S -2.245 (log10 mol/L) and log vapor pressure 1.215 (log10 mmHg).
Listed for CC(O)C(=O)O.CCCCC(CC)COC(=O)Nc1ccc(C)c(NC(=O)OCCN(C)C)c1 (stereo unspecified): logP (octanol/water) 4.38 and log S -0.235 (log10 mol/L) and log vapor pressure -7.582 (log10 mmHg).
Listed for CCN(CCC(=O)OC)c1ccc(N=Nc2snc3ccc([N+](=O)[O-])cc23)cc1 [C.I. Disperse Blue 148]: mp 82.5 °C and log S -7.315 (log10 mol/L).
Listed for CCCCCCCC/C=C\CCCCCCCC(=O)NCCOCCO [9-Octadecenamide, N-[2-(2-hydroxyethoxy)ethyl]-, (9Z)-]: logP (octanol/water) 6.86 and log vapor pressure -4.696 (log10 mmHg).
Listed for CC(CC(=O)[O-])CC(C)(C)C.CC(CC(=O)[O-])CC(C)(C)C.[Zn+2] (stereo unspecified) [Zinc bis(3,5,5-trimethylhexanoate)]: mp 94 °C and log S -2.563 (log10 mol/L).
Listed for CCOc1ccc(NC(=O)NN)cc1 [N-(4-Ethoxyphenyl)hydrazinecarboxamide]: logP (octanol/water) 0.53 and log S -1.647 (log10 mol/L).
Listed for CCOC(=O)[C@H](CCc1ccccc1)N[C@@H](C)C(=O)N1[C@H](C(=O)O)C[C@H]2CCCC[C@@H]21 [Trandolapril]: logP (octanol/water) 3.5 and log S -4.318 (log10 mol/L).
Listed for CCOC(=O)CCC1(C)OCC(C)O1 (stereo unspecified) [1,3-Dioxolane-2-propanoic acid, 2,4-dimethyl-, ethyl ester]: logP (octanol/water) 1.505 and log vapor pressure -1.312 (log10 mmHg).
Listed for COc1ccc2cccc(CC#N)c2c1 [7-Methoxy-1-naphthylacetonitrile]: logP (octanol/water) 2.79 and log S -4.158 (log10 mol/L).
Listed for O=C(OCCc1ccccc1)c1ccccc1O [Phenethyl salicylate]: logP (octanol/water) 4.8 and log S -4.489 (log10 mol/L) and log vapor pressure -3 (log10 mmHg).
Listed for CS(=O)(=O)c1ccc(C(=O)O)c([N+](=O)[O-])c1 [4-Mesyl-2-nitrobenzoic acid]: logP (octanol/water) -0.52 and log S -1.753 (log10 mol/L).
Listed for COc1c(Cl)cc(Cl)c(Cl)c1Cl: mp 64 °C and log S -5.13 (log10 mol/L).
Listed for NCCc1cc[nH]n1 [Betazole]: logP (octanol/water) 0.1 and log S 0.147 (log10 mol/L).
Listed for COc1cc(Br)c(CCC#N)cc1OC [3-(2-Bromo-4,5-dimethoxyphenyl)propanenitrile]: mp 78.8 °C and logP (octanol/water) 1.98 and log S -3.443 (log10 mol/L) and log vapor pressure -5.663 (log10 mmHg).
Listed for CC(C)CC1CCC(CCC=O)CC1 (stereo unspecified) [4-(2-Methylpropyl)cyclohexanepropanal]: boiling point 265 °C and log S -6.135 (log10 mol/L) and log vapor pressure -1.727 (log10 mmHg).
Listed for CCO[Si](CCC#N)(OCC)OCC [3-(Triethoxysilyl)propionitrile]: mp -68.6 °C and log vapor pressure -1.846 (log10 mmHg).
Listed for C#CC1(OC(C)=O)CCCCC1 [Cyclohexanol, 1-ethynyl-, 1-acetate]: logP (octanol/water) 2.8 and log S -2.352 (log10 mol/L) and log vapor pressure -0.771 (log10 mmHg).
Listed for CCOC(=O)[C@H](CCc1ccccc1)N[C@@H](C)C(=O)N1Cc2ccccc2C[C@H]1C(=O)O [Quinapril]: logP (octanol/water) 3.2 and log S -4.713 (log10 mol/L) and fu 0.03541.
Listed for C[Si](C)(F)CCCC#N [4-[Fluoro(dimethyl)silyl]butanenitrile]: boiling point 202.4 °C and log vapor pressure 0.773 (log10 mmHg).
Listed for FC(F)=C(F)OC(F)(F)C(F)(F)C(F)(F)OC(F)(F)F [Hexafluoro-1-trifluoromethoxy-3-trifluorovinyloxypropane]: boiling point 65.55 °C and log vapor pressure 2.051 (log10 mmHg).
Listed for C=C(C)C(=O)OC1CC(C)CC(C)(C)C1 (stereo unspecified) [3,3,5-Trimethylcyclohexyl 2-methylprop-2-enoate]: boiling point 240.6 °C and logP (octanol/water) 5.25 and log S -4.599 (log10 mol/L) and log vapor pressure -1.339 (log10 mmHg).
Listed for N[C@@H](COP(=O)(O)O)C(=O)O [Dexfosfoserine]: log S -0.416 (log10 mol/L) and log vapor pressure -7.023 (log10 mmHg).
Listed for CC1(C)CC(OC(=O)CCCCCCCCC(=O)OC2CC(C)(C)NC(C)(C)C2)CC(C)(C)N1 [Bis(2,2,6,6-tetramethyl-4-piperidyl) sebacate]: log S -4.408 (log10 mol/L) and log vapor pressure -10 (log10 mmHg).
Listed for CCN(CC)c1ccc(C=C2OC(=NC3CCCCC3)N(C3CCCCC3)C2=O)c(OC)c1: mp 132.1 °C and log S -6.18 (log10 mol/L) and log vapor pressure -11.41 (log10 mmHg).
Listed for C=COC(=O)CCCCC(C)(C)C [Vinyl neononanoate]: logP (octanol/water) 4.6 and log vapor pressure -0.166 (log10 mmHg).
Listed for CC(C)(C=O)CC1=CCC2CC1C2(C)C (stereo unspecified): logP (octanol/water) 5.4 and log S -4.281 (log10 mol/L) and log vapor pressure -1.593 (log10 mmHg).
Listed for CC(=O)C=CC1C(C)=CCC(C)C1(C)C (stereo unspecified) [alpha-Irone]: mp -12.5 °C and log S -3.803 (log10 mol/L) and log vapor pressure -2.523 (log10 mmHg).
Listed for FC(C(F)(F)F)C(F)(F)Oc1cc(Cl)ccc1Cl (stereo unspecified) [1,4-Dichloro-2-(1,1,2,3,3,3-hexafluoropropoxy)benzene]: mp -16.77 °C and boiling point 214.3 °C and logP (octanol/water) 4.72 and log S -5.018 (log10 mol/L) and log vapor pressure -0.725 (log10 mmHg).
Listed for CCCCCCC(O)C/C=C\CCCCCCCC(=O)OCC(COC(=O)CCCCCCC/C=C\CC(CCCCCC)OC(=O)/C=C\C(=O)O)OC(=O)CCCCCCC/C=C\CC(O)CCCCCC (stereo partly drawn) [Ricinoleyl monomaleate triglyceride]: logP (octanol/water) 3 and log S -5.677 (log10 mol/L) and log vapor pressure -10.76 (log10 mmHg).

Excerpt, the final 4 entries:

| compound | name | mp (°C) | boiling point (°C) | logP (octanol/water) | log S (log10 mol/L) | log vapor pressure (log10 mmHg) | fu |
|---|---|---|---|---|---|---|---|
| CC(C)(C=O)CC1=CCC2CC1C2(C)C (stereo unspecified) | – | – | – | 5.4 | -4.281 | -1.593 | – |
| CC(=O)C=CC1C(C)=CCC(C)C1(C)C (stereo unspecified) | alpha-Irone | -12.5 | – | – | -3.803 | -2.523 | – |
| FC(C(F)(F)F)C(F)(F)Oc1cc(Cl)ccc1Cl (stereo unspecified) | 1,4-Dichloro-2-(1,1,2,3,3,3-hexafluoropropoxy)benzene | -16.77 | 214.3 | 4.72 | -5.018 | -0.725 | – |
| CCCCCCC(O)C/C=C\CCCCCCCC(=O)OCC(COC(=O)CCCCCCC/C=C\CC(CCCCCC)OC(=O)/C=C\C(=O)O)OC(=O)CCCCCCC/C=C\CC(O)CCCCCC (stereo partly drawn) | Ricinoleyl monomaleate triglyceride | – | – | 3 | -5.677 | -10.76 | – |

Values as listed in the OPERA 2.9 repository of K. Mansouri.